For the assay, the system named is dulcitol accumulation. In words: lowering of dulcitol (galactitol) accumulation in tissues of galactosemic rats (Table I, IN VIVO). Also noted: species or system rat (Sprague-Dawley). The following applies: 4 days; for % Lowering dulcitol accumulation IN VIVO, D: diaphragm; for % Lowering dulcitol accumulation IN VIVO, L: lens. From the text: Such experiments are exemplified hereinbelow after the listing of the following general comments pertaining to these experiments:
(a) Four or more groups of six male rats, […], Sprague-Dawley strain, were used. The first group, the control group, was fed a mixture of laboratory chow (rodent Laboratory Chow, Purina) and […] at 20% (w/w %) concentration. […] The test compound was either admixed to the diet or administered by gavage. In experiments involving compound administration in the diet, the average dose administered was calculated from the actual food intake of the animals in each group. The concentration of galactose in the diet of the treated groups was the same as that for the untreated galactosemic group.
(b) After four days, the animals were killed by decapitation. The eyeballs were removed and punctured with a razor blade; the freed lenses were rolled gently on filter paper and weighed. The sciatic nerves were dissected as completely as possible and weighed. Both tissues when frozen can be kept up to two weeks before being analyzed for galactitol.
Only two minor reagent changes were made: (a) the rinsing mixture was an aqueous 5% (w/v) trichloroacetic acid solution and (b) the stock solution was prepared by dissolving 25 mg of dulcitol in 100 mL of an aqueous trichloroacetic acid solution. [N.B.: For each experiment the average value found in the tissue from rats fed the glucose diet was subtracted from the individual values found in the corresponding tissue in galactose-fed rats to obtain the amount of polyol accumulated.]
The figures under L, N, and D represent the percentage decrease of galactitol accumulation in the tissues of the lens, sciatic nerve, and diaphragm, respectively, for treated rats as compared to untreated rats.

With `COc1ccc2c(C(=O)N(C)CC(=O)O)c(Cl)ccc2c1C(F)(F)F` [Cl O OH, N-[[2-Chloro-6-methoxy-5-(trifluoromethyl)-1-naphthalenyl]carbonyl]-N-methylglycine], where the note is “26 mg/kg”, the “% Lowering dulcitol accumulation IN VIVO, D” value was 63% and the “% Lowering dulcitol accumulation IN VIVO, L” value was “N.S”. In addition, the “% Lowering dulcitol accumulation IN VIVO, L” value (49 mg/kg) was “N.S”.

Regarding `COc1ccc2c(C(=O)N(C)CC(=O)O)c(F)ccc2c1C(F)(F)F` [F O OH, N-[[2-Fluoro-6-methoxy-5-(trifluoromethyl)-1-naphthalenyl]carbonyl]-N-methylglycine], the “% Lowering dulcitol accumulation IN VIVO, D” value is listed as 46% (16 mg/kg), 70% (24 mg/kg) and 84% (52 mg/kg). For the same molecule, the “% Lowering dulcitol accumulation IN VIVO, L” value reads like this: (16 mg/kg) “N.S”; (24 mg/kg) “N.S”.

Take `COc1ccc2c(C(=S)N(C)CC(=O)O)c(OCc3ccccc3)ccc2c1C(F)(F)F`: where the note is “10 mg/kg”, the “% Lowering dulcitol accumulation IN VIVO, D” value was determined as 60% and the “% Lowering dulcitol accumulation IN VIVO, L” value is given as “N.S”. In addition, the “% Lowering dulcitol accumulation IN VIVO, L” value (26 mg/kg) is given as “N.S”.

With `COc1ccc2c(C(=S)N(C)CC(N)=O)c(F)ccc2c1C(F)(F)F` [F S NH2, [[[2-Fluoro-6-methoxy-5-(trifluoromethyl)-1-naphthalenyl]thioxomethyl]methylamino]acetamide], the “% Lowering dulcitol accumulation IN VIVO, D” value reads like this: (2 mg/kg) 53%; (9.9 mg/kg) 87%. The “% Lowering dulcitol accumulation IN VIVO, L” value reads like this: (2 mg/kg) “N.S”; (5 mg/kg) “N.S”; (9.9 mg/kg) “N.S”.

`COc1ccc2c(C(=O)N(C)CC(=O)O)c(OCC(F)(F)F)ccc2c1C(F)(F)F` [Example 3, N-[[6-Methoxy-2-(2,2,2-trifluoroethoxy)-5-(trifluoromethyl)-1-naphthalenyl]carbonyl]-N-methylglycine]: for the setting “24 mg/kg”, the “% Lowering dulcitol accumulation IN VIVO, D” value is recorded as 63% and the “% Lowering dulcitol accumulation IN VIVO, L” value was “N.S”. Further, the “% Lowering dulcitol accumulation IN VIVO, L” value (50 mg/kg) is given as “N.S”.

(Values after patent publication US4962224A, “N-naphthoylglycines as aldose reductase inhibitors” (American Home Products Corporation, priority 1989, dated 1990).)
